# Apparent affinities of Ab-91 variants for a coronavirus HR2 peptide

All variants were tested on one target, the spike HR2 peptide PDVDLGDISGINAS (SARS-CoV-2).

Ab-91 is the parent antibody, in scFv form: VL, then a 15-residue (Gly4Ser)3 linker, then VH. The light chain is unchanged in all variants.
VL: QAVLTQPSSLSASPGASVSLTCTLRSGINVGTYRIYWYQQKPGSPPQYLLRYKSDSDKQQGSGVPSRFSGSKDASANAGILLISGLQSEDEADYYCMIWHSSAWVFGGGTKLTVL
VH: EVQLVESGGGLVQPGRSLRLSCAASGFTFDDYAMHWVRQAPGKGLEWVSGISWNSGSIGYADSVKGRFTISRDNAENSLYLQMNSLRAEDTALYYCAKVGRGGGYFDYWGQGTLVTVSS

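The starting antibody came from a phage panning campaign against this peptide. AAYL51 was designed without a model: most single CDR substitutions and a random sample of double and triple ones. In AlphaSeq, yeast of one mating type display the scFv and yeast of the other type display the target. After mating in shaken culture at 30 °C for 16 h, diploids were selected and their barcode pairs sequenced. Scores were corrected for input abundance and mapped to Kd with protein pairs of known affinity run in the same pool. Each pool was mated in three replicate cultures.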

Changes read parent residue, position, new residue, counted from the first residue of the VH shown. Every variant below is changed at S55 of the VH (sequential numbering). Values are apparent Kd, the geometric mean of the replicates that gave a signal; lower means stronger binding. An entry "nd" has no value in the source: the pair was not observed among the diploids in any replicate. This suggests poor binding but is not conclusive. In this assay the parent's reference entry averaged 72 nM; its copy inside this library read 7.5 nM. Nonspecific signal, from three strains lacking the peptide, appeared in 21% of pairings of library AAYL51, centred on 34 µM (5% of these signals below 1.8 µM); values are not corrected for it. For each scFv, signals with the empty controls are counted beside the result.

Y32C S55T: 500 µM (3 of 3 replicates; controls 5 of 9).
W53S S55K G56H: nd (0 of 3 replicates; controls 0 of 9).
M34E S55P F106L: 54 µM (1 of 3 replicates; controls 2 of 9).
A33S S55C F106Q: 42 µM (2 of 3 replicates; controls 2 of 9).
S55N V64W G104I: 100 µM (2 of 3 replicates; controls 3 of 9).
S55P: nd (0 of 3 replicates; controls 2 of 9).
S55A Y60D G100H: nd (0 of 3 replicates; controls 0 of 9).
D30S S55C I58S: 5.8 nM (3 of 3 replicates; controls 4 of 9).
D31S S55V F106C: 710 nM (3 of 3 replicates; controls 4 of 9).
D30C S55P G56S: 230 nM (3 of 3 replicates; controls 1 of 9).
F27M F29H S55H: 37 µM (1 of 3 replicates; controls 2 of 9).
F29M S55K F106K: nd (0 of 3 replicates; controls 0 of 9).
D31H S55T G102W: nd (0 of 3 replicates; controls 0 of 9).
I51Y S55W: 8.6 µM (2 of 3 replicates; controls 3 of 9).
G50F S55F G100P: 290 µM (1 of 3 replicates; controls 0 of 9).
Y32M G50T S55V: 8.3 µM (1 of 3 replicates; controls 1 of 9).
I51D S55P S63K: nd (0 of 3 replicates; controls 2 of 9).
S55N G59E: 68 µM (1 of 3 replicates; controls 0 of 9).
G50K S55K V64R: nd (0 of 3 replicates; controls 1 of 9).
G50N S55E S57V: 13 µM (2 of 3 replicates; controls 1 of 9).
H35F S55P G56D: nd (0 of 3 replicates; controls 0 of 9).
D30P S55T I58E: 69 nM (3 of 3 replicates; controls 2 of 9).
F29R D31H S55Y: 16 µM (1 of 3 replicates; controls 0 of 9).
S55K G104R Y108C: 22 µM (2 of 3 replicates; controls 4 of 9).
W53R S55K A61I: 6.6 µM (1 of 3 replicates; controls 1 of 9).
S55P D62K D107W: nd (0 of 3 replicates; controls 0 of 9).
M34G S55R D62I: 240 µM (2 of 3 replicates; controls 2 of 9).
H35N S55P G100A: nd (0 of 3 replicates; controls 0 of 9).
S55P D107G: 80 µM (1 of 3 replicates; controls 3 of 9).
S55A K65R D107W: 9.9 µM (1 of 3 replicates; controls 1 of 9).
S55A G56T: 320 nM (3 of 3 replicates; controls 2 of 9).
A33D S55I V64M: 5.5 µM (2 of 3 replicates; controls 0 of 9).
Y32D S55G: 150 µM (1 of 3 replicates; controls 5 of 9).
M34K S55R G56T: nd (0 of 3 replicates; controls 1 of 9).
S55I G100R F106P: 51 µM (1 of 3 replicates; controls 3 of 9).
D30I S52D S55A: nd (0 of 3 replicates; controls 1 of 9).
S55Y G59I: nd (0 of 3 replicates; controls 1 of 9).

The closing 3 entries, repeated:

Variant S55I G100R F106P showed 51 µM (1 of 3 replicates; controls 3 of 9).
Variant D30I S52D S55A showed nd (0 of 3 replicates; controls 1 of 9).
Variant S55Y G59I showed nd (0 of 3 replicates; controls 1 of 9).

The measurements come from Engelhart et al. 2022 (doi:10.1038/s41597-022-01779-4) through the FLAb antibody collection.